Assay results as given in ChEMBL document CHEMBL4229498 (Bioorg Med Chem, 2018).

Chains of the proteins cited; added tags and fusions are not shown.
UniProt P21554, whole entry: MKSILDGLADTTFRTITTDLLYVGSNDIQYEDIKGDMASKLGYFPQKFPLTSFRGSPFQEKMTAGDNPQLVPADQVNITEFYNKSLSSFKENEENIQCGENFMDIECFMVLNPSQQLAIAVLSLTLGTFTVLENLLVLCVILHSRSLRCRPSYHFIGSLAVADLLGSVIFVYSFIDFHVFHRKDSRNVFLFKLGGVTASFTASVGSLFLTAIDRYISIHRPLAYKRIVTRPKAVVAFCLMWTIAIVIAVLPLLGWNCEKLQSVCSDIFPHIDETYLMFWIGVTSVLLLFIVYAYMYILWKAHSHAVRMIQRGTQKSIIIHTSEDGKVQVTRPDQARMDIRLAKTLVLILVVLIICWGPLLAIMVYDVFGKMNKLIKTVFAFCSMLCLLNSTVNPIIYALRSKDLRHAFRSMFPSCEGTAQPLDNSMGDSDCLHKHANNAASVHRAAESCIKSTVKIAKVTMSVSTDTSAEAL

molecular target: Cannabinoid receptor 1 (Homo sapiens, UniProt P21554); details: HEK293

SMILES	Ke [nM]
CCCCS(=O)(=O)N1CCN(c2ncnc3c2nc(-c2ccccc2Cl)n3-c2ccc(Cl)cc2)CC1	0.9
CN1CCC(NC(=O)N2CCN(c3ncnc4c3nc(-c3ccccc3Cl)n4-c3ccc(Cl)cc3)CC2)CC1	4900
O=C(NC1CCCCC1)N1CCN(c2ncnc3c2nc(-c2ccccc2Cl)n3-c2ccc(Cl)cc2)CC1	41
O=C(Nc1ccccc1F)N1CCN(c2ncnc3c2nc(-c2ccccc2Cl)n3-c2ccc(Cl)cc2)CC1	2
CC(C)CS(=O)(=O)N1CCN(c2ncnc3c2nc(-c2ccccc2Cl)n3-c2ccc(Cl)cc2)CC1	0.5
O=C(NC1(C(F)(F)F)CCCC1)N1CCN(c2ncnc3c2nc(-c2ccccc2Cl)n3-c2ccc(Cl)cc2)CC1	17
O=C(N1CCN(c2ncnc3c2nc(-c2ccccc2Cl)n3-c2ccc(Cl)cc2)CC1)C(F)(F)F	0.4
O=C(N1CCCC1)N1CCN(c2ncnc3c2nc(-c2ccccc2Cl)n3-c2ccc(Cl)cc2)CC1	66
CCCS(=O)(=O)N1CCN(c2ncnc3c2nc(-c2ccccc2Cl)n3-c2ccc(Cl)cc2)CC1	2
COCCOC(=O)N1CCN(c2ncnc3c2nc(-c2ccccc2Cl)n3-c2ccc(Cl)cc2)CC1	54
N=C(c1ccc(F)cc1)N1CCN(c2ncnc3c2nc(-c2ccccc2Cl)n3-c2ccc(Cl)cc2)CC1	4000
O=C(NC1CCOCC1)N1CCN(c2ncnc3c2nc(-c2ccccc2Cl)n3-c2ccc(Cl)cc2)CC1	2200
O=C(NC1CCCC1)N1CCN(c2ncnc3c2nc(-c2ccccc2Cl)n3-c2ccc(Cl)cc2)CC1	54
O=C(CC1CCCC1)N1CCN(c2ncnc3c2nc(-c2ccccc2Cl)n3-c2ccc(Cl)cc2)CC1	0.1
N=C(Nc1ccc(F)cc1)N1CCN(c2ncnc3c2nc(-c2ccccc2Cl)n3-c2ccc(Cl)cc2)CC1	510
COCCS(=O)(=O)N1CCN(c2ncnc3c2nc(-c2ccccc2Cl)n3-c2ccc(Cl)cc2)CC1	50
O=C(OC1COC1)N1CCN(c2ncnc3c2nc(-c2ccccc2Cl)n3-c2ccc(Cl)cc2)CC1	95
CC(C)(O)CC(=O)N1CCN(c2ncnc3c2nc(-c2ccccc2Cl)n3-c2ccc(Cl)cc2)CC1	200
O=C(NCC1CCOCC1)N1CCN(c2ncnc3c2nc(-c2ccccc2Cl)n3-c2ccc(Cl)cc2)CC1	5900
O=S(=O)(CCC(F)(F)F)N1CCN(c2ncnc3c2nc(-c2ccccc2Cl)n3-c2ccc(Cl)cc2)CC1	15

SMILES	Ke [nM]
CS(=O)(=O)CCC(=O)N1CCN(c2ncnc3c2nc(-c2ccccc2Cl)n3-c2ccc(Cl)cc2)CC1	3200
O=C(C1COc2ccccc2O1)N1CCN(c2ncnc3c2nc(-c2ccccc2Cl)n3-c2ccc(Cl)cc2)CC1 (stereo not given)	6
COCCC(=O)N1CCN(c2ncnc3c2nc(-c2ccccc2Cl)n3-c2ccc(Cl)cc2)CC1	72
CC(C)CNC(=O)N1CCN(c2ncnc3c2nc(-c2ccccc2Cl)n3-c2ccc(Cl)cc2)CC1	100
Cc1cc(NC(=O)N2CCN(c3ncnc4c3nc(-c3ccccc3Cl)n4-c3ccc(Cl)cc3)CC2)no1	150
Cn1nnc(CCC(=O)N2CCN(c3ncnc4c3nc(-c3ccccc3Cl)n4-c3ccc(Cl)cc3)CC2)n1	740
CC(=O)N1CCN(c2ncnc3c2nc(-c2ccccc2Cl)n3-c2ccc(Cl)cc2)CC1	120
O=C(Nc1ccccn1)N1CCN(c2ncnc3c2nc(-c2ccccc2Cl)n3-c2ccc(Cl)cc2)CC1	8
O=C(OC1CCOCC1)N1CCN(c2ncnc3c2nc(-c2ccccc2Cl)n3-c2ccc(Cl)cc2)CC1	105
CCOCC(=O)N1CCN(c2ncnc3c2nc(-c2ccccc2Cl)n3-c2ccc(Cl)cc2)CC1	20
CC(C(=O)N1CCN(c2ncnc3c2nc(-c2ccccc2Cl)n3-c2ccc(Cl)cc2)CC1)c1ccccc1 (stereo not given)	1.5
O=C(NCC1CCCCC1)N1CCN(c2ncnc3c2nc(-c2ccccc2Cl)n3-c2ccc(Cl)cc2)CC1	35
CS(=O)(=O)N1CCN(c2ncnc3c2nc(-c2ccccc2Cl)n3-c2ccc(Cl)cc2)CC1	3
Cn1cc(NC(=O)N2CCN(c3ncnc4c3nc(-c3ccccc3Cl)n4-c3ccc(Cl)cc3)CC2)cn1	1200
O=C(Nc1ccc(F)cc1F)N1CCN(c2ncnc3c2nc(-c2ccccc2Cl)n3-c2ccc(Cl)cc2)CC1	10
O=C(N1CCOCC1)N1CCN(c2ncnc3c2nc(-c2ccccc2Cl)n3-c2ccc(Cl)cc2)CC1	670
CC(C)(C)CC(=O)N1CCN(c2ncnc3c2nc(-c2ccccc2Cl)n3-c2ccc(Cl)cc2)CC1	0.14
O=C(CC1CCOCC1)N1CCN(c2ncnc3c2nc(-c2ccccc2Cl)n3-c2ccc(Cl)cc2)CC1	36
CC(C)S(=O)(=O)N1CCN(c2ncnc3c2nc(-c2ccccc2Cl)n3-c2ccc(Cl)cc2)CC1	1
O=S(=O)(CC1CCOCC1)N1CCN(c2ncnc3c2nc(-c2ccccc2Cl)n3-c2ccc(Cl)cc2)CC1	4

SMILES	Ke [nM]
O=C(OC1CCC1)N1CCN(c2ncnc3c2nc(-c2ccccc2Cl)n3-c2ccc(Cl)cc2)CC1	10
O=C(Nc1ccc(F)cc1)N1CCN(c2ncnc3c2nc(-c2ccccc2Cl)n3-c2ccc(Cl)cc2)CC1	2
O=C(Nc1ccc(OC(F)F)nc1)N1CCN(c2ncnc3c2nc(-c2ccccc2Cl)n3-c2ccc(Cl)cc2)CC1	13
CN1CCC(CNC(=O)N2CCN(c3ncnc4c3nc(-c3ccccc3Cl)n4-c3ccc(Cl)cc3)CC2)CC1	3200
CC(C)(C)OC(=O)N1CCN(c2ncnc3c2nc(-c2ccccc2Cl)n3-c2ccc(Cl)cc2)CC1	4
CCCCC(=O)N1CCN(c2ncnc3c2nc(-c2ccccc2Cl)n3-c2ccc(Cl)cc2)CC1	0.6
O=C(C1CCOCC1)N1CCN(c2ncnc3c2nc(-c2ccccc2Cl)n3-c2ccc(Cl)cc2)CC1	410
O=C(Nc1ccccc1)N1CCN(c2ncnc3c2nc(-c2ccccc2Cl)n3-c2ccc(Cl)cc2)CC1	3
O=C(CN1CCCCC1)N1CCN(c2ncnc3c2nc(-c2ccccc2Cl)n3-c2ccc(Cl)cc2)CC1	34
COC(=O)N1CCN(c2ncnc3c2nc(-c2ccccc2Cl)n3-c2ccc(Cl)cc2)CC1	98
Cn1ccc(NC(=O)N2CCN(c3ncnc4c3nc(-c3ccccc3Cl)n4-c3ccc(Cl)cc3)CC2)n1	1000
CCS(=O)(=O)N1CCN(c2ncnc3c2nc(-c2ccccc2Cl)n3-c2ccc(Cl)cc2)CC1	17
O=S(=O)(C1CC1)N1CCN(c2ncnc3c2nc(-c2ccccc2Cl)n3-c2ccc(Cl)cc2)CC1	17
O=C(C1CCSCC1)N1CCN(c2ncnc3c2nc(-c2ccccc2Cl)n3-c2ccc(Cl)cc2)CC1	2
O=C(C1CCS(=O)(=O)CC1)N1CCN(c2ncnc3c2nc(-c2ccccc2Cl)n3-c2ccc(Cl)cc2)CC1	1800
O=C(NS(=O)(=O)c1ccccc1F)N1CCN(c2ncnc3c2nc(-c2ccccc2Cl)n3-c2ccc(Cl)cc2)CC1	420
O=C(Nc1ccc(F)c(F)c1)N1CCN(c2ncnc3c2nc(-c2ccccc2Cl)n3-c2ccc(Cl)cc2)CC1	5
O=C(CN1CCOCC1)N1CCN(c2ncnc3c2nc(-c2ccccc2Cl)n3-c2ccc(Cl)cc2)CC1	370
O=C(CC1CCOC1)N1CCN(c2ncnc3c2nc(-c2ccccc2Cl)n3-c2ccc(Cl)cc2)CC1 (stereo not given)	19
O=S(=O)(CC1CCCCC1)N1CCN(c2ncnc3c2nc(-c2ccccc2Cl)n3-c2ccc(Cl)cc2)CC1	0.6
